Measurements as given in US20250320214A1, “ORGANIC COMPOUNDS” (INTRA-CELLULAR THERAPIES, INC., priority 2022, published 2025).

Protein sequences, listed by entry. Tags and fused reporters are not part of them. Residues count along the entry.
UniProt P14416, 1-414 isoform 2: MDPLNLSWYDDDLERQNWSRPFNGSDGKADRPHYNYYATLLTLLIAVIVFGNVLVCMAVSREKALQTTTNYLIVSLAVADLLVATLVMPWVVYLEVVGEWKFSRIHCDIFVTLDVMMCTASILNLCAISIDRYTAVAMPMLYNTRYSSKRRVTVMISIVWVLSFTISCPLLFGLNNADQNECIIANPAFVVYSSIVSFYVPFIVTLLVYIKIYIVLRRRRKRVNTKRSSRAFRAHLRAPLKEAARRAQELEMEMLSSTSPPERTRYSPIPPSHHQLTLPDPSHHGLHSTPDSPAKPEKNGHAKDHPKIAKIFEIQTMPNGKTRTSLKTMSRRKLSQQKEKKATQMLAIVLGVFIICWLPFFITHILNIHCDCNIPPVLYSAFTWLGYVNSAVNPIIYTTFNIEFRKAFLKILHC
UniProt P31645, whole entry: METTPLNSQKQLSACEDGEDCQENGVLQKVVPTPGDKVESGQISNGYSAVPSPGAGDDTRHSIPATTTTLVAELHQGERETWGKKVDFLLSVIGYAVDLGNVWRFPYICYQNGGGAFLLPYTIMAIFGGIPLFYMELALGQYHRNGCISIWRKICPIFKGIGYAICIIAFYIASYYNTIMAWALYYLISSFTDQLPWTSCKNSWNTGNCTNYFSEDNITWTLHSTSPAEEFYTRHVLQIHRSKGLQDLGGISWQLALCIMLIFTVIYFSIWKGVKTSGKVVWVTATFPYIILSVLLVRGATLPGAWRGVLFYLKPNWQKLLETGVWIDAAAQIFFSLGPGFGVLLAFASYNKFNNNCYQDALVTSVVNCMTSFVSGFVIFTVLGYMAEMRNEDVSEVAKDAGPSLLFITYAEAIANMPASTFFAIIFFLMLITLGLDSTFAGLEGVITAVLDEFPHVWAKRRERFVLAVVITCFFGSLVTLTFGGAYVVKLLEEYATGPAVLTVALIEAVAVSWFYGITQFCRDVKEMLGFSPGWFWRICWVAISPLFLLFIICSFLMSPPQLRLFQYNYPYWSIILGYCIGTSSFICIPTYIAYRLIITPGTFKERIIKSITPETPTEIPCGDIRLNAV
UniProt P28223, whole entry: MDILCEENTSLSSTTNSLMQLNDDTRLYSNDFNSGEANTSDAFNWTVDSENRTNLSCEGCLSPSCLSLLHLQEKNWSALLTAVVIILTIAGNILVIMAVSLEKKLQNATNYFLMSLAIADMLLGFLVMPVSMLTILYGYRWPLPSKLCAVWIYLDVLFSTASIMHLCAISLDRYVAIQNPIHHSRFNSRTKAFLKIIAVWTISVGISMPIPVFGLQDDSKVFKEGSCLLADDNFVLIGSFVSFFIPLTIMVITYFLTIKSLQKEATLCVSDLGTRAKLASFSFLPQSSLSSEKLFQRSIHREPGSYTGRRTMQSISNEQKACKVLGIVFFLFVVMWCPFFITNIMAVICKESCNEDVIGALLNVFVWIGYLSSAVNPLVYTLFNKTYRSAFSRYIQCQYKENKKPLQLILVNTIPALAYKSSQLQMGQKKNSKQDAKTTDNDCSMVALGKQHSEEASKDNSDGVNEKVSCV
UniProt P35372, whole entry: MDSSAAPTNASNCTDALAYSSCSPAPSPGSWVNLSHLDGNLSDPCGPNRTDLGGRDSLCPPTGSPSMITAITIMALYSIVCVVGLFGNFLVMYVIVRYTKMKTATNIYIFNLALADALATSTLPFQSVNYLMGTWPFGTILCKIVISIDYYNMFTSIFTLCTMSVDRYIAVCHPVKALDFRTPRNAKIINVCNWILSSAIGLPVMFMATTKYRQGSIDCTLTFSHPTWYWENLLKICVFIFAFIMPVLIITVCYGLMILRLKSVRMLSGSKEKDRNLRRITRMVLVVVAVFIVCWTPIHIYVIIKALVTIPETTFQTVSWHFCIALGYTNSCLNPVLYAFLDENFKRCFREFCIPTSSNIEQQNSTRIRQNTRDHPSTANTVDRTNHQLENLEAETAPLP
UniProt P21728, whole entry: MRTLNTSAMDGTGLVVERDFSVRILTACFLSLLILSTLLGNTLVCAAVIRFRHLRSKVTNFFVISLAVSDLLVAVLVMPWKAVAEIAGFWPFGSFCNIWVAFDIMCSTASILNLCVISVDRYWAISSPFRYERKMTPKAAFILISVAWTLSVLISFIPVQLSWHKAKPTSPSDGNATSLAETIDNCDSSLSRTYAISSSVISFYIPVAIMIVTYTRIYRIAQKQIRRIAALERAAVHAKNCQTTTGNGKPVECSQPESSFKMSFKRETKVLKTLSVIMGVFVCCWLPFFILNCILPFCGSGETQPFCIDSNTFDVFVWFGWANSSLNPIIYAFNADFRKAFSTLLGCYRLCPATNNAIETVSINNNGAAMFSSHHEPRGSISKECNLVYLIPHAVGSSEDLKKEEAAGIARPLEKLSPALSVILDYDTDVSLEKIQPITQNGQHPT

Key:
D2 = D2 (Homo sapiens, UniProt P14416); experiment: Receptor binding, D2; conditions: read-out: D2 Ki
SERT = SERT (Homo sapiens, UniProt P31645); experiment: Receptor binding, SERT; conditions: read-out: SERT Ki
5-HT2A = 5-HT2A (Homo sapiens, UniProt P28223); experiment: Receptor binding, 5-HT2A; conditions: read-out: 5-HT2A Ki
Mu opioid receptor = Mu opioid receptor (Homo sapiens, UniProt P35372); experiment: Receptor binding, Mu opioid receptor; conditions: read-out: Mu Ki
D1 = D1 (Homo sapiens, UniProt P21728); experiment: Receptor binding, D1; conditions: read-out: D1 Ki

Work on `Nc1cc(F)ccc1OCCCN1CC[C@H]2[C@@H](C1)c1cccc3c1N2CC(=O)N3` yielded a Ki (D2) of 1 nM, a Ki (SERT) of 60 nM and a Ki (5-HT2A) of 0.34 nM. The Ki (Mu opioid receptor) was 4.1 nM and the Ki (D1) was 16 nM.
